Reference: BindingDB's records for doi:10.1021/jm00137a012 (1981)

What follows are molecules tested against T1, Dihydrofolate reductase (Bos taurus, UniProt P00376) (assay: Inhibition of dihydrofolate reductase from bovine liver).
T1 sequence (P00376 whole entry): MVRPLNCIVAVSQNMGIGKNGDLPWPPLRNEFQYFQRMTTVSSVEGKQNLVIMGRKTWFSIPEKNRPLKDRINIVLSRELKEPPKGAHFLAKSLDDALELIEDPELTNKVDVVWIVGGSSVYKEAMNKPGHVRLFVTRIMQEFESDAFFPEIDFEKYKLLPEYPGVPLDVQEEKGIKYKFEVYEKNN

Ki | Structure (SMILES)
9.55 µM | Nc1ncc(Cc2ccc([N+](=O)[O-])cc2)c(N)n1
2.88 µM | Nc1ncc(Cc2cccc(Br)c2)c(N)n1
6.61 µM | Nc1ncc(Cc2ccc(F)cc2)c(N)n1
3.39 µM | Nc1ncc(Cc2cccc(Cl)c2)c(N)n1
17.4 µM | CN(C)c1ccc(Cc2cnc(N)nc2N)cc1
6.76 µM | Nc1ncc(Cc2ccc(Br)cc2)c(N)n1
12 µM | COc1ccc(Cc2cnc(N)nc2N)cc1 [5-(4-Methoxy-benzyl)-pyrimidine-2,4-diamine]
